The source of these data is PMC3389199 (Bioorganic & medicinal chemistry letters, 2012).

For the test, the target named is T1, hDAGLα (Homo sapiens, UniProt Q9Y4D2).
T1 sequence (Q9Y4D2 1-1042): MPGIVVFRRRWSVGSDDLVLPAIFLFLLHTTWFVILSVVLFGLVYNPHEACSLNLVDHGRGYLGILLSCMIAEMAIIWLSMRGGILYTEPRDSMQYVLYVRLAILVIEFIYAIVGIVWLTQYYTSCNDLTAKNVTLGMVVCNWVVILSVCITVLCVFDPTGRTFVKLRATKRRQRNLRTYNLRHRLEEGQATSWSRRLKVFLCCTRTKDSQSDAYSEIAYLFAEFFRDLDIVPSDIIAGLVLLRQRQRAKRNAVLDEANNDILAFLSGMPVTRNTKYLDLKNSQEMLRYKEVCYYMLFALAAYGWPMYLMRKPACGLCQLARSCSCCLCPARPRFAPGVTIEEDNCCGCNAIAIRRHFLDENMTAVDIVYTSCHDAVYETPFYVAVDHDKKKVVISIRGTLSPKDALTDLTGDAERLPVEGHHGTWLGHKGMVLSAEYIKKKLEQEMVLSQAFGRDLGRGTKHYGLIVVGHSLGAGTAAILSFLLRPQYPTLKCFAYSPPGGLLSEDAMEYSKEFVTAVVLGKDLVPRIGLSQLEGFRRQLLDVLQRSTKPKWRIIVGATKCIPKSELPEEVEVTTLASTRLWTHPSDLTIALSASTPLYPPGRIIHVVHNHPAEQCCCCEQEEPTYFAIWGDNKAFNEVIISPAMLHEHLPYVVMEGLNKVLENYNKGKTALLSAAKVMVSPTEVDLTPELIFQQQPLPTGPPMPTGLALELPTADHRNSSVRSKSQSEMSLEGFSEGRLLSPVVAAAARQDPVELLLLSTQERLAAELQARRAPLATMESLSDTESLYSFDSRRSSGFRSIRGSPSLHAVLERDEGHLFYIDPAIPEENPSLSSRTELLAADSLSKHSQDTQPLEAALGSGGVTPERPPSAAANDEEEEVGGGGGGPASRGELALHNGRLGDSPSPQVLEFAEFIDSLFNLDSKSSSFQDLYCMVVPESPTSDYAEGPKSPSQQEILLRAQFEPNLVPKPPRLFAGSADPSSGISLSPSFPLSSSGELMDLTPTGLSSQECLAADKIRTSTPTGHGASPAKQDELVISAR
The test is described as follows: Radio-TLC assay of hDAGLα inhibition with [14C]SAG substrate. Type of test: biochemical.

Regarding `CCCCCCCCCCC[C@@H](C[C@@H]1OC(=O)[C@H]1CCCCCC)OC(=O)[C@@H](NC=O)[C@H](C)CC` [Compound 5], the “selectivity for diacylglycerol lipase over monoacylglycerol lipase and fatty acid amide hydrolase enzymes (in words)” value is reported as “good selectivity”.

Consider `CCCCCCCCCCC[C@@H](C[C@@H]1OC(=O)[C@H]1CCCCCC)OC(=O)[C@@H](NC=O)[C@@H](C)CC` [4 (OMDM-188), OMDM-188], for which the “selectivity for diacylglycerol lipase over monoacylglycerol lipase and fatty acid amide hydrolase enzymes (in words)” value is “good selectivity”.
